target: PARG (389-976) (Homo sapiens (Human), UniProt Q86W56); assay: PARG enzyme inhibition assay (TR-FRET); details: read-out: IC50 (PARG enzyme); Table 3, class symbol

By UniProt entry, the sequences of proteins in these tests, tags left out. Residues count along the entry.
UniProt Q86W56, 389-976 limits assumed: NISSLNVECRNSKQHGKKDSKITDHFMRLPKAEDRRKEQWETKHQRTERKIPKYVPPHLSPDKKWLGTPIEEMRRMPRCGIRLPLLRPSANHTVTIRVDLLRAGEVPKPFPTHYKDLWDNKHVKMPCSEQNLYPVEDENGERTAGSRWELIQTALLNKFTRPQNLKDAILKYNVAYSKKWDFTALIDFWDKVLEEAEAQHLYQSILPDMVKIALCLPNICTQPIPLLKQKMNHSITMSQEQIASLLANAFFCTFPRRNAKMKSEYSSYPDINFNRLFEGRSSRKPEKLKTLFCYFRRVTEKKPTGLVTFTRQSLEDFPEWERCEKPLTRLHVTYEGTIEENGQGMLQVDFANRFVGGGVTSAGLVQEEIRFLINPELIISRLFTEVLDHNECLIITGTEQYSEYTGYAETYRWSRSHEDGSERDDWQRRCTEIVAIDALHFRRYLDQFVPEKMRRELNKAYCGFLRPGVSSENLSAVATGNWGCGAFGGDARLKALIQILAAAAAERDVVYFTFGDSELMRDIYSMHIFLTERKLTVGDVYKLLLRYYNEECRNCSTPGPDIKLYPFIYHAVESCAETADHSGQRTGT

Row | SMILES | IC50
1 | Cn1nc(-c2nnc(C(F)F)s2)c2cc(S(=O)(=O)NC3(C#N)CC3)cc(CN3CCC(C(C)(C)O)CC3)c21 | < 100 nM
2 | CC(C)C(=O)N1C2CCC1CN(c1cc(S(=O)(=O)NC3(C#N)CC3)cc3c(-c4nnc(C(F)F)s4)n(CCO)nc13)C2 | < 100 nM
3 | CC(C)C(=O)N1C2CCC1CN(Cc1cc(S(=O)(=O)NC3(C#N)CC3)cc3c(-c4nnc(C(F)F)s4)nn(C)c13)C2 | < 100 nM

Reference: US20230278998A1, “Compound containing structure of a five-membered heteroaromatic ring, pharmaceutical compositions thereof and applications thereof” (280 Bio, Inc., priority 2022, published 2023)
